Assay results published in patent publication US20090286696A1.

Target: cyclosporin A (CsA) derivative containing a D-lysine residue, biotinylated
Assay: ribosome-display competition experiment, selection on CsA-coated beads; reference E. coli PpiB

human cyclophilin A (CyPA) (from UniProt P62937 1-165) (enzyme)
single-round selectivity for binding of CsA-coated beads by CyPA over PpiB: 20 fold
